Only a part is listed here, and it is no random draw. Active and inactive are the calls of the source.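 How the source made its calls: active means mean replicate inhibition at least 60% with every replicate also reaching 60%; inconclusive means only one of the two criteria is met; inactive means mean below 60% and not all replicates reaching 60%.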
experiment: inhibitors of PAX8-driven TPO luciferase reporter, primary screen, RMG-I cells, single concentration (AID 652154); settings: SteadyGlo, 24 h, at 12.6 µM, hits give high values;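 further: luciferase light reporting Pax8 driven TPO promoter activity; plate controls were median of neutral control wells for no effect and mitoxantrone controls for full effect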

| SMILES | inhibition |
| --- | --- |
| Cc1cc(C)cc(OP(C)(=O)Nc2ccc(SC(F)(F)F)cc2)c1 (stereo unspecified) | inactive: 21.1% |
